## Binding of CDR-mutated scFvs to a peptide of the spike HR2 region

All variants were tested on one target, the spike HR2 peptide PDVDLGDISGINAS (SARS-CoV-2).

The variants keep the light chain, the linker and the frameworks of Ab-14 (scFv order VH, a (GGGGS)3 linker, VL).
VH: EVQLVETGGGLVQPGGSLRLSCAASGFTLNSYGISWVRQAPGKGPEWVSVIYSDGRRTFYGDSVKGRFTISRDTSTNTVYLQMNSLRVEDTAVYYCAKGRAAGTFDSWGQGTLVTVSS
VL: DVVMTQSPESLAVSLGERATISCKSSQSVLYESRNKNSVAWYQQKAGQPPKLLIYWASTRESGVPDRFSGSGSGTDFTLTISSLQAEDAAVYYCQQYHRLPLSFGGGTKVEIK

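The variants were designed computationally from a first round of random CDR variants and then made and measured. Group labels follow the data file (Ctrl: baseline library sampled from a position-specific scoring matrix, with some repeated check sequences; Rand: our label for a block that the file lists under HC and that is probably the random mutants of the ten best first-round binders; En: ensemble of fine-tuned language models; GP: Gaussian process model; GPLM: also part of the Gaussian process libraries; HC: hill climbing; Gen: genetic algorithm; Gibbs: Gibbs sampling; a sequence that several methods proposed may carry one label only). AlphaSeq pools MATa yeast showing the antibodies with MATalpha yeast showing the peptide. The frequency of each diploid, read from paired DNA barcodes, reflects how well the two displayed proteins bind. Read counts were normalised to the haploid input and turned into Kd by a linear fit to BCL2-family pairs of known affinity, for each replicate. There are six technical replicates.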

Variants are written as CDR1, CDR2 and CDR3 of the heavy chain (limits as in the source). Parent: GFTLNSYGIS, VIYSDGRRTFYGDSVK, GRAAGTFDS.
The Kd shown is the geometric mean over detected replicates; a lower Kd is a better binder.
Where no diploid with the target was found in any replicate, the entry reads "no signal": below detection, most likely a poor binder, though not proof of it.
Nonspecific signal, from three strains lacking the peptide, appeared in 1% of pairings of all heavy chain designs, centred on 120 nM (5% of these signals below 7.0 nM); values are not corrected for it. The control count says in how many pairings with the empty strains this scFv gave a signal.

{"CDR-H1": "GFTLNSYGIS", "CDR-H2": "VIYSDGRRTFYGDDVK", "CDR-H3": "GRAALTFDS", "group": "Ctrl", "Kd": "no signal", "detected": "0/6", "empty controls": "0/18"}
{"CDR-H1": "GFDLNEYGIS", "CDR-H2": "VIYADGKRTAYADSVK", "CDR-H3": "GETAGTFDM", "group": "En_Gen", "Kd": "380 pM", "detected": "6/6", "empty controls": "0/18"}
{"CDR-H1": "GMTLNSYGIS", "CDR-H2": "VIYSDGRRTFYQDSVK", "CDR-H3": "GQLAGTFDS", "group": "GP_HC", "Kd": "11 nM", "detected": "1/6", "empty controls": "0/18"}
{"CDR-H1": "GFDLNEYGIS", "CDR-H2": "VIYADGRRTYYIDSVK", "CDR-H3": "GEAAGTFDL", "group": "En_HC", "Kd": "160 pM", "detected": "6/6", "empty controls": "0/18"}
{"CDR-H1": "GFDLNEYGIS", "CDR-H2": "VIYADGRRTFYSDSVK", "CDR-H3": "GQTGGTFDT", "group": "En_HC", "Kd": "66 pM", "detected": "4/6", "empty controls": "0/18"}
{"CDR-H1": "GFDLDEYGIS", "CDR-H2": "VIYADGMRKAYADDVK", "CDR-H3": "GNVAGTFDV", "group": "En_Gen", "Kd": "100 pM", "detected": "6/6", "empty controls": "0/18"}
{"CDR-H1": "GFDLEDYGIS", "CDR-H2": "VIYADGKRTAYADSVK", "CDR-H3": "GNVAGTFDQ", "group": "En_Gen", "Kd": "540 pM", "detected": "6/6", "empty controls": "0/18"}
{"CDR-H1": "GFWLNDYGIS", "CDR-H2": "VIYSDGRRTFYIDSVK", "CDR-H3": "GKAAGTFDS", "group": "GPLM_Gen", "Kd": "14 nM", "detected": "5/6", "empty controls": "0/18"}
{"CDR-H1": "GFDLDEYGIS", "CDR-H2": "VIYADGKRTVYADSVK", "CDR-H3": "GNVAGTFDI", "group": "En_Gen", "Kd": "330 pM", "detected": "6/6", "empty controls": "1/18"}
{"CDR-H1": "GFTHDSYGIS", "CDR-H2": "VIYSDGRRTFYGDSVK", "CDR-H3": "GRAAGTAIS", "group": "Rand", "Kd": "no signal", "detected": "0/6", "empty controls": "2/18"}
{"CDR-H1": "GFSLDEYGIS", "CDR-H2": "VIYADGLRTFYQDQVK", "CDR-H3": "GQLAGSLYT", "group": "En_Gibbs", "Kd": "no signal", "detected": "0/6", "empty controls": "0/18"}
{"CDR-H1": "GFQLDEYGIS", "CDR-H2": "VIYADGQRTAYSKNVK", "CDR-H3": "GYIDFKRIG", "group": "En_Gibbs", "Kd": "no signal", "detected": "0/6", "empty controls": "0/18"}
{"CDR-H1": "GFELNSYGIS", "CDR-H2": "VIYSDGRRTFYSDSVK", "CDR-H3": "GQAAGTFDT", "group": "GPLM_Gen", "Kd": "2.4 nM", "detected": "6/6", "empty controls": "0/18"}
{"CDR-H1": "GFDLNEYGIS", "CDR-H2": "VIYADGMRTAYADKVK", "CDR-H3": "GETAGTFDL", "group": "En_Gen", "Kd": "950 pM", "detected": "6/6", "empty controls": "0/18"}
{"CDR-H1": "GFDLNEYGIS", "CDR-H2": "VIYADGQRTFYSDSVK", "CDR-H3": "GNQAGTFDV", "group": "En_HC", "Kd": "410 pM", "detected": "6/6", "empty controls": "0/18"}
{"CDR-H1": "GFSLNEYGIS", "CDR-H2": "VIYSDGHRTFYSDSVK", "CDR-H3": "GRAAGTFDS", "group": "GP_HC", "Kd": "460 pM", "detected": "6/6", "empty controls": "3/18"}
{"CDR-H1": "GFTLNEYGIS", "CDR-H2": "VIYSDGRRTFYEDDVK", "CDR-H3": "GRFAHTFDS", "group": "Rand", "Kd": "no signal", "detected": "0/6", "empty controls": "0/18"}
{"CDR-H1": "GFTLNDYGIS", "CDR-H2": "VIYSWGRRTFYGDSVK", "CDR-H3": "GRAALTFIS", "group": "Rand", "Kd": "no signal", "detected": "0/6", "empty controls": "0/18"}
{"CDR-H1": "GFDLDEYGIS", "CDR-H2": "VIYADGSRTAYSKNVK", "CDR-H3": "GGFDDKVLV", "group": "En_Gibbs", "Kd": "no signal", "detected": "0/6", "empty controls": "0/18"}
{"CDR-H1": "PFDLNSYGIS", "CDR-H2": "VIYSDGRRTFYKDSVK", "CDR-H3": "GKTAGTFDS", "group": "GP_Gibbs", "Kd": "15 nM", "detected": "6/6", "empty controls": "1/18"}
{"CDR-H1": "GFNLNEYGIS", "CDR-H2": "VIYADGRRTFYADSVK", "CDR-H3": "GEHAGTFDV", "group": "En_HC", "Kd": "200 pM", "detected": "6/6", "empty controls": "0/18"}
{"CDR-H1": "GFDLNSYGIS", "CDR-H2": "VIYSDGRRTFYGDSVK", "CDR-H3": "GNTAGTFDR", "group": "GPLM_Gibbs", "Kd": "1.2 nM", "detected": "6/6", "empty controls": "1/18"}
{"CDR-H1": "GFTLNSYGIS", "CDR-H2": "VIYSDGRRTFYSDRVK", "CDR-H3": "GQAAGTFDL", "group": "GP_Gibbs", "Kd": "230 nM", "detected": "2/6", "empty controls": "0/18"}
{"CDR-H1": "GFTLNSYGIS", "CDR-H2": "VIYSDGRRTFYSDSVK", "CDR-H3": "GEAGGTFDT", "group": "GPLM_HC", "Kd": "140 nM", "detected": "2/6", "empty controls": "0/18"}
{"CDR-H1": "GFDLNEYGIS", "CDR-H2": "VIYADGRRTFYADKVK", "CDR-H3": "GNVGGTFDI", "group": "En_HC", "Kd": "700 pM", "detected": "6/6", "empty controls": "0/18"}
{"CDR-H1": "GFTLNDYGIS", "CDR-H2": "VIYSDGRRTFYGYSVK", "CDR-H3": "GRAALDFIS", "group": "Rand", "Kd": "no signal", "detected": "0/6", "empty controls": "0/18"}
{"CDR-H1": "GFDLNEYGIS", "CDR-H2": "VIYADGMRTAYADSVK", "CDR-H3": "GQNAGTFDL", "group": "En_Gen", "Kd": "73 pM", "detected": "6/6", "empty controls": "0/18"}

For reference, 4 entries of the list once more:

{"CDR-H1": "GFDLDEYGIS", "CDR-H2": "VIYADGMRKAYADDVK", "CDR-H3": "GNVAGTFDV", "group": "En_Gen", "Kd": "100 pM", "detected": "6/6", "empty controls": "0/18"}
{"CDR-H1": "GMTLNSYGIS", "CDR-H2": "VIYSDGRRTFYQDSVK", "CDR-H3": "GQLAGTFDS", "group": "GP_HC", "Kd": "11 nM", "detected": "1/6", "empty controls": "0/18"}
{"CDR-H1": "GFTLNEYGIS", "CDR-H2": "VIYSDGRRTFYEDDVK", "CDR-H3": "GRFAHTFDS", "group": "Rand", "Kd": "no signal", "detected": "0/6", "empty controls": "0/18"}
{"CDR-H1": "GFDLDEYGIS", "CDR-H2": "VIYADGSRTAYSKNVK", "CDR-H3": "GGFDDKVLV", "group": "En_Gibbs", "Kd": "no signal", "detected": "0/6", "empty controls": "0/18"}

The authors averaged sequences with at least three values out of six and counted those with two or fewer as poor binders.
A sequence measured in both rounds can read differently, since the two assays cover different ranges.

Reference: Li et al. 2023, doi:10.1038/s41467-023-39022-2. File: FLAb, binding data.